The values below are quoted from earlier work in patent US20180098959A1, “METHODS FOR TREATING CANCER” (BOSTON BIOMEDICAL, INC., priority 2015, published 2018).

The test system of the series is mCRC. Particulars: Single Agent; panitumumab value for K-Ras WT; cited from earlier work.

With cetuximab, the “Historical DCR (in Evaluable patients with mCRC)” value was 30-40%.
